What is called fraction remaining is what is left of the initial amount, in per cent. Read a high fraction remaining as less turnover. What is called IC50 is the concentration needed to halve the response being measured.

Three molecules from patent US20210395313A1, “PEPTIDE PAC1 ANTAGONISTS” (AMGEN INC., priority 2017, published 2021) can be followed below.

One data set in a line: in vitro. The conditions noted are these: rat, plasma.
The conditions of data set [1]: rat plasma, 37° C., 0 h (baseline).
A further data set deals with T1, rat PAC1 receptor (Rattus norvegicus, UniProt P32215).
T1 construct: SHSY-5Y (human neuroblastoma cell line) and RG-2 (rat glioma cell line) cells endogenously express human and rat PAC1 receptors, respectively; endogenous in cells; host or cells: RG-2 rat glioma cells
T1 sequence (P32215 20-523): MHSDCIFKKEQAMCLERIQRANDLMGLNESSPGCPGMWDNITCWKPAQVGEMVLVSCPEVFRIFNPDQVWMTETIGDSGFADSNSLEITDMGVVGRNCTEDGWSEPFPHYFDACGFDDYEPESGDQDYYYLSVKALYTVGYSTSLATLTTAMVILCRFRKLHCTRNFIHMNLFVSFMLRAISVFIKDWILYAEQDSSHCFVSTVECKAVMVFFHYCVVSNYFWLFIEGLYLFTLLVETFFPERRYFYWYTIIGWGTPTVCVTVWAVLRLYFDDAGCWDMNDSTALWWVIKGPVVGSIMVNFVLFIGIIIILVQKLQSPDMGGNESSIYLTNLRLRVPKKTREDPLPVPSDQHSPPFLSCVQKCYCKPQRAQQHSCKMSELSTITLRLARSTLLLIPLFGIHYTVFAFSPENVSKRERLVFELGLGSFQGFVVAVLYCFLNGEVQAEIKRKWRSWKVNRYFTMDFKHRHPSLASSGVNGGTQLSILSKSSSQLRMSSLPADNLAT
Nature of the data set: LANCE Ultra cAMP accumulation antagonist assay in RG-2 cells.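 Note: RG-2 rat glioma cells endogenously expressing PAC1, test peptide preincubated 30 min, then PAC1 agonist added at its EC80 for 15 min, cAMP accumulation read by LANCE Ultra.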 The data set is classed as cell-based. A general note: TR-FRET usually uses a lanthanide donor and a delayed reading to cut background.

In another data set the target is T2, human PAC1 receptor (Homo sapiens, UniProt P41586).
T2 construct: SHSY-5Y (human neuroblastoma cell line) and RG-2 (rat glioma cell line) cells endogenously express human and rat PAC1 receptors, respectively; endogenous in cells; host or cells: SHSY-5Y human neuroblastoma cells
T2 sequence (P41586 21-468): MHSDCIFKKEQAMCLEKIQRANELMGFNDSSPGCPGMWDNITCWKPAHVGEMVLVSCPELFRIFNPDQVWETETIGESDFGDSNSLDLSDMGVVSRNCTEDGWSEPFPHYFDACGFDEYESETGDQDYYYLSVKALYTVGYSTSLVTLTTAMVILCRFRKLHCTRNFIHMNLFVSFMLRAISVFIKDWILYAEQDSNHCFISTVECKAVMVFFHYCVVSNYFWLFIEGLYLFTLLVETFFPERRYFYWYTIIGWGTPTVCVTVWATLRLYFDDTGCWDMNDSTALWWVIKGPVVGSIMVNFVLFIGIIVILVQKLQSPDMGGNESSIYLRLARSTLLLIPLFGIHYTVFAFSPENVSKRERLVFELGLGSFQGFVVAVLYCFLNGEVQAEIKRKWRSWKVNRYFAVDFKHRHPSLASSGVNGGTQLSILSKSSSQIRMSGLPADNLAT
Briefly: LANCE Ultra cAMP accumulation antagonist assay in SHSY-5Y cells.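 Note: inhibition of cAMP accumulation evoked by PAC1 agonist at its EC80 in SHSY-5Y cells endogenously expressing receptor, 30 min preincubation then 15 min agonist, TR-FRET readout.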 The format is cell-based.

Molecules are shown by their SMILES.
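Throughout, for % Intact Peptide Remaining: peptides incubated in vitro in rat plasma at 37 °C up to 6 h, intact peptide quantified by LC-MS versus internal standard, expressed relative to pre-incubation baseline (100%).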

For the molecule `CC[C@H](C)[C@H](NC(=O)[C@H](C)NC(=O)[C@H](CCCCN)NC(=O)[C@H](CCCNC(=N)N)NC(=O)[C@H](Cc1ccccc1)NC(=O)[C@H](CCC(N)=O)NC(=O)[C@@H]1CSSC[C@H](N)C(=O)N[C@@H](CC(=O)O)C(=O)N[C@@H](C)C(=O)N[C@@H]([C@@H](C)O)C(=O)N1)C(=O)N[C@@H](CC(=O)O)C(=O)N[C@@H](CC(=O)O)C(=O)N[C@H]1CSSC[C@@H](C(=O)N[C@@H](CCSC)C(=O)N[C@@H](CCCCN)C(=O)N[C@@H](CCC(N)=O)C(=O)N[C@@H](CCCCN)C(=O)N[C@@H](CCCCN)C(=O)N[C@@H](CCCCN)C(=O)N[C@@H](CCC(=O)O)C(=O)N[C@@H](Cc2ccccc2)C(=O)N[C@@H](CCCCN)C(=O)N[C@@H](C)C(=O)NCC(N)=O)NC(=O)C(C)(C)NC(=O)[C@H](CCCCN)NC(=O)[C@H](Cc2ccccc2)NC(=O)[C@H](C(C)C)NC(=O)[C@H](CO)NC(=O)[C@H](C(C)C)NC(=O)[C@H](CO)NC(=O)[C@H]([C@@H](C)O)NC(=O)[C@H](CCC(N)=O)NC(=O)[C@H](CC(C)C)NC(=O)CNC(=O)[C@@H]2CCCN2C(=O)[C@H](C(C)C)NC(=O)[C@H](CC(N)=O)NC(=O)[C@H](CO)NC(=O)[C@H](Cc2c[nH]cn2)NC(=O)[C@H](Cc2c[nH]cn2)NC(=O)[C@H](C)NC(=O)[C@H](CCC(N)=O)NC(=O)[C@H](CCCCN)NC(=O)[C@H](CCC(N)=O)NC1=O` [SEQ ID NO 197], in “in vitro”, the fraction remaining at 0.5 h stood at 95.2%, the share remaining at 1 h worked out at 98.9%, the fraction remaining at 2 h amounted to 91.9% and the share remaining at 4 h worked out at 89%. For the same molecule, the fraction remaining at 6 h in the data set “in vitro” came out at 87.5%. For the same molecule, the “% Intact Peptide Remaining” value in data set [1] is recorded as 100%.

With `CC[C@H](C)[C@H](NC(=O)[C@H](C)NC(=O)[C@H](CCCCN)NC(=O)[C@H](CCCNC(=N)N)NC(=O)[C@H](Cc1ccccc1)NC(=O)[C@H](CCC(N)=O)NC(=O)[C@@H]1CSSC[C@H](N)C(=O)N[C@@H](CC(=O)O)C(=O)N[C@@H](C)C(=O)N[C@@H]([C@@H](C)O)C(=O)N1)C(=O)N[C@@H](CC(=O)O)C(=O)N[C@@H](CC(=O)O)C(=O)N[C@H]1CSSC[C@@H](C(=O)N[C@@H](CCSC)C(=O)N[C@@H](CCCCN)C(=O)N[C@@H](CCC(N)=O)C(=O)N[C@@H](CCCCN)C(=O)N[C@@H](CCCCN)C(=O)N[C@@H](CCCCN)C(=O)N[C@@H](CCC(=O)O)C(=O)N[C@@H](Cc2ccccc2)C(=O)N[C@@H](CCCCN)C(=O)N[C@@H](C)C(=O)N[C@@H](C)C(N)=O)NC(=O)C(C)(C)NC(=O)[C@H](CCCCN)NC(=O)[C@H](Cc2ccccc2)NC(=O)[C@H](C(C)C)NC(=O)[C@H](CO)NC(=O)CNC(=O)[C@@H]2CCCN2C(=O)[C@H](C(C)C)NC(=O)[C@H](CC(N)=O)NC(=O)[C@H](CO)NC(=O)[C@H](Cc2c[nH]cn2)NC(=O)[C@H](Cc2c[nH]cn2)NC(=O)[C@H](C)NC(=O)[C@H](CCC(N)=O)NC(=O)[C@H](CCCCN)NC(=O)[C@H](CCC(N)=O)NC1=O` [compound 98], the figures for the IC50 on rat PAC1 receptor and against human PAC1 receptor were 0.01 to 1 nM and 1 to 100 nM, respectively.

On to `CCCC[C@H](NC(=O)[C@@H]1CSSC[C@H](NC(=O)[C@H](CC(=O)O)NC(=O)[C@H](CC(=O)O)NC(=O)[C@@H](NC(=O)[C@H](C)NC(=O)[C@H](CCCCN)NC(=O)[C@H](CCCNC(=N)N)NC(=O)[C@H](Cc2ccccc2)NC(=O)[C@H](CCC(N)=O)NC(=O)[C@@H]2CSSC[C@H](N)C(=O)N[C@@H](CC(=O)O)C(=O)N[C@@H](C)C(=O)N[C@@H]([C@@H](C)O)C(=O)N2)[C@@H](C)CC)C(=O)N[C@@H](CCC(N)=O)C(=O)N[C@@H](CCCCN)C(=O)N[C@@H](CCC(N)=O)C(=O)N[C@@H](C)C(=O)N[C@@H](Cc2c[nH]cn2)C(=O)N[C@@H](Cc2c[nH]cn2)C(=O)N[C@@H](CO)C(=O)N[C@@H](CC(N)=O)C(=O)N[C@@H](C(C)C)C(=O)N2CCC[C@H]2C(=O)NCC(=O)N[C@@H](CC(N)=O)C(=O)N[C@@H](CO)C(=O)N[C@@H](Cc2ccccc2)C(=O)N[C@@H](CCCCN)C(=O)NC(C)(C)C(=O)N1)C(=O)N[C@@H](CCCCN)C(=O)N[C@@H](CCC(N)=O)C(=O)N[C@@H](CCCCN)C(=O)N[C@@H](CCCCN)C(=O)N[C@@H](CCCCN)C(=O)N[C@@H](CCC(=O)O)C(=O)N[C@@H](Cc1ccccc1)C(=O)N[C@@H](CCCCN)C(N)=O` [compound 267], for which the IC50 was in the range of 0.01 to 1 nM against rat PAC1 receptor and 1 to 100 nM against human PAC1 receptor.
